Assay results: paper PMC3176149, “Application of Celluspots peptide arrays for the analysis of the binding specificity of epigenetic reading domains to modified histone tails” (BMC Biochemistry, 2011)
Entries after “also recorded” stand apart in the source; their conditions may differ.

Legend:
[1] = test system: Rag2 PHD finger (residues 311-520); test: Binding of GST-fused Rag2 PHD finger to modified histone peptides on Celluspots peptide arrays; design: species or system human; settings: Rag2 PHD finger GST fusion 2 nM, room temperature, 2 hours, interaction buffer pH 7.5, ECL, tested at least two times
Protocol: In the present study, the binding specificities of seven known reading domains were analyzed using Celluspots peptide arrays comprising 384 peptides from 8 different regions of the N-terminal histone tails, viz. H3 1-19, 7-26, 16-35 and 26-45, H4 1-19 and 11-30, H2A 1-19 and H2B 1-19. The arrays are commercially available from Active Motif and feature 59 post-translational modifications (most of them identified, some of them hypothetical) in many different combinations (Additional file 1). Binding of the GST fused reading domain proteins to peptide arrays was visualized using an anti-GST antibody, followed by a secondary anti-goat-HRP antibody and ECL detection system. The domains were selected to represent the different folds of reading domains and show a wide range of specificities. […] Each reading domain was tested at least two times on the peptide arrays to ensure that the results are reliable. In case of weak signals, the experiment was repeated with higher protein concentration. In case of an overexposed image, the protein concentration was reduced. For quality control, each glass slide contains two identical copies of the array. The binding intensities for each tested reading domain were analyzed with the Array Analyze program, which calculates the average of the binding intensities to corresponding peptide spots in both copies of the array and prepares a graphical output - one scatter plot illustrating the binding intensities observed at corresponding spots in both copies of the array and a bar diagram showing the distribution of deviations of the binding intensities to the corresponding spots. […] The sequences encoding human HP1ß full length (residues 1-185), the Chromo domain of human MPP8 (residues 58-112), the double Tudor domain of human JMJ[…] […] Protein concentration was determined by UV spectroscopy. […] Similar results were observed here with reading domains. […]

[2] = test system: JMJD2A double Tudor domain (residues 856-1047); test: Binding of GST-fused JMJD2A double Tudor domain to modified histone peptides on Celluspots peptide arrays; design: species or system human; settings: JMJD2A double Tudor GST fusion 10 nM, room temperature, 2 hours, interaction buffer pH 7.5, ECL, tested at least two times
Protocol: In the present study, the binding specificities of seven known reading domains were analyzed using Celluspots peptide arrays comprising 384 peptides from 8 different regions of the N-terminal histone tails, viz. H3 1-19, 7-26, 16-35 and 26-45, H4 1-19 and 11-30, H2A 1-19 and H2B 1-19. The arrays are commercially available from Active Motif and feature 59 post-translational modifications (most of them identified, some of them hypothetical) in many different combinations (Additional file 1). Binding of the GST fused reading domain proteins to peptide arrays was visualized using an anti-GST antibody, followed by a secondary anti-goat-HRP antibody and ECL detection system. […] In case of weak signals, the experiment was repeated with higher protein concentration. In case of an overexposed image, the protein concentration was reduced. For quality control, each glass slide contains two identical copies of the array. […] The sequences encoding human HP1ß full length (residues 1-185), the Chromo domain of human MPP8 (residues 58-112), the double Tudor domain of human JMJ[…] (residues 856-1047), the tandem Tudor domain of human 53BP1 (residues 1490-1608), the PHD finger of human Rag2 (residues 311-520) and the second Bromo domain of human BRD2 (residues 348-455) were amplified from cDNA derived from HEK293 cells and cloned as GST fusion proteins into the pGEX-6P-2 vector (GE Healthcare).

[3] = test system: 53BP1 tandem Tudor domain (residues 1490-1608); test: Binding of GST-fused 53BP1 tandem Tudor domain to modified histone peptides on Celluspots peptide arrays; design: species or system human; settings: 53BP1 tandem Tudor GST fusion 1 μM, room temperature, 2 hours, interaction buffer pH 7.5, ECL, tested at least two times
Protocol: In the present study, the binding specificities of seven known reading domains were analyzed using Celluspots peptide arrays comprising 384 peptides from 8 different regions of the N-terminal histone tails, viz. H3 1-19, 7-26, 16-35 and 26-45, H4 1-19 and 11-30, H2A 1-19 and H2B 1-19. The arrays are commercially available from Active Motif and feature 59 post-translational modifications (most of them identified, some of them hypothetical) in many different combinations (Additional file 1). Binding of the GST fused reading domain proteins to peptide arrays was visualized using an anti-GST antibody, followed by a secondary anti-goat-HRP antibody and ECL detection system. The domains were selected to represent the different folds of reading domains and show a wide range of specificities. […] Each reading domain was tested at least two times on the peptide arrays to ensure that the results are reliable. […] The binding intensities for each tested reading domain were analyzed with the Array Analyze program, which calculates the average of the binding intensities to corresponding peptide spots in both copies of the array and prepares a graphical output - one scatter plot illustrating the binding intensities observed at corresponding spots in both copies of the array and a bar diagram showing the distribution of deviations of the binding intensities to the corresponding spots. […]

[4] = test system: JMJD2A double Tudor domain; settings: ref [14],[17],[18]; cited from earlier work
From the text: The Tudor domain folds into a ß-sandwich flanked by one α-helix.

[5] = test system: 53BP1 tandem Tudor domain; settings: ref [14],[15]; cited from earlier work
From the text: The Tudor domain folds into a ß-sandwich flanked by one α-helix. […] Indeed, all H4K20me2 modified peptides (the main target reported for the tandem Tudor domain of 53BP1 [14]) were specifically recognized by the 53BP1 tandem Tudor domain on the peptide array (Figure 5B).

Rag2 PHD finger = settings: ref [20]; cited from earlier work
From the text: These binding modules are about 50 amino acids long and contain two binding sites for zinc ions.

MPP8 Chromo domain = biological target: T1, MPP8 Chromo domain (Homo sapiens, UniProt Q99549); test: Peptide binding of MPP8 Chromo domain in solution by fluorescence depolarization; settings: purified FITC-coupled peptides
T1 construct: the Chromo domain of human MPP8 (residues 58-112); made in house
T1 sequence (Q99549 58-112): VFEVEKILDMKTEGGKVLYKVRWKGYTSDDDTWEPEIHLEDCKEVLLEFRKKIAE
From the text: The sequences encoding human HP1ß full length (residues 1-185), the Chromo domain of human MPP8 (residues 58-112), the double Tudor domain of human JMJ[…] (residues 856-1047), the tandem Tudor domain of human 53BP1 (residues 1490-1608), the PHD finger of human Rag2 (residues 311-520) and the second Bromo domain of human BRD2 (residues 348-455) were amplified from cDNA derived from HEK293 cells and cloned as GST fusion proteins into the pGEX-6P-2 vector (GE Healthcare).

Substance	binding to modified histone tail peptides (array signal) [1]	binding to modified histone tail peptides (array signal) [2]	binding to modified histone tail peptides (array signal) [3]	binding to JMJD2A double Tudor domain (literature) [4]	interaction with 53BP1 tandem Tudor domain (literature) [5]	interaction with Rag2 PHD finger (literature) (Rag2 PHD finger)	Kd (MPP8 Chromo domain; fluorescence depolarization in solution, amino acids 1-19, fit to binary binding equilibrium, read-out: Binding constant)	binding in solution (in words) (MPP8 Chromo domain; fluorescence depolarization, amino acids 1-19)
H3K4me1: H3K4me1 modified histone tail peptide on Celluspots array	almost no binding signal	–	–	–	–	–	–	–
H3K4me2: H3K4me2 modified histone tail peptide on Celluspots array	greatly reduced	not detectable	not observed on the peptide array	weaker affinity; also recorded: reported to bind	reported to interact	–	–	–
H3K4me3: H3K4me3 modified histone tail peptide on Celluspots array	strongest signal	very weak	–	weaker affinity; also recorded: reported to bind	–	reported to interact with H3K4me3; also recorded: interacts with H3K4me3	–	–
H3K9me3-S10ph: double modified H3 peptide, FITC-coupled, amino acids 1-19	–	–	–	–	–	–	> 50 µM	Loss of binding
